In assay [1] the target is T1, ETAR (Homo sapiens, UniProt P25101). The experiment in a line: 125I-ET-1 radioreceptor binding to NCI-H838 cells.
For the next assay, the system named is NCI-H727 cells. The experiment in a line: MTT proliferation assay, NCI-H727 cells. Type of assay: cell-based. The following applies: Homo sapiens, NCI-H727, 48 h, read-out: IC50, proliferation. Background: Tetrazolium assays rely on reduction of a dye to a coloured formazan, in cell work by metabolically active cells.
Assay [2] concerns the target T1, ETAR. The experiment in a line: 125I-ET-1 radioreceptor binding to NCI-H1975 cells.

Chains of the proteins cited; added tags and fusions are not shown. Residues count along the entry.
UniProt P25101, 21-427: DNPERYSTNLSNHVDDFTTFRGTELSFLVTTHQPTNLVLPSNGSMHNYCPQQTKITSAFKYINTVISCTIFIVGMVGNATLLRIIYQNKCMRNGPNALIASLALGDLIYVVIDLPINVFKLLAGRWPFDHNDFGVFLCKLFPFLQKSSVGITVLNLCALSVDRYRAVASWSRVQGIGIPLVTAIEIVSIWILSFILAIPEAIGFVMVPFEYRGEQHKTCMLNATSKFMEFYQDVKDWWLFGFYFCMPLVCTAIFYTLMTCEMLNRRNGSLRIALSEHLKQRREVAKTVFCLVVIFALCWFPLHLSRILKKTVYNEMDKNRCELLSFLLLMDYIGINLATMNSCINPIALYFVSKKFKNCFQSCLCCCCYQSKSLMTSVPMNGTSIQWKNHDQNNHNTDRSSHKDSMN

In brackets after ≈: the same amount, converted by molar mass.

As for `COc1nc(C)cnc1NS(=O)(=O)c1cccnc1-c1ccc(-c2nnco2)cc1` [ZD4054, zibotentan], the IC50 amounted to 0.5 ± 0.1 nM on ETAR [1], 30 µg/mL (≈ 70.7 µM) in the assay on NCI-H727 cells and 0.7 ± 0.2 nM on ETAR [2].

(Values after article PMC5421360 (Peptides, 2017).)
